Experimental data: article PMC11628845 (Acta Pharmaceutica Sinica. B, 2024)

How the values were obtained:
[1] = test system: wild-type HBV (genotype C); experiment: microbe, parasite or virus in culture; format: cell-based; details: Hepatitis B virus
wild type HBV (pHBV 1.3) = experiment: microbe, parasite or virus in culture; format: cell-based; details: Hepatitis B virus, read-out: HBV DNA IC50

## C=C1[C@H](CO)[C@@H](O)C[C@@H]1n1cnc2c(=O)[nH]c(N)nc21 [ETV, entecavir, reference compound]
[1]; Huh-7, read-out: HBV DNA IC50
  IC50: 1.6 nM
[1]; Huh-7, read-out: HBV DNA IC50, Wide type (genotype C)
  IC50: 4730 nM

## COc1ccc(Cc2[nH]/c(=N/C(=O)C34CC5CC(CC(C5)C3)C4)n(C)c2Cc2ccc(OC)c(OC)c2)cc1 [11a, (Z)-N-(5-(3,4-Dimethoxybenzyl)-4-(4-methoxybenzyl)-1-methyl-1,3-dihydro-2H-imidazole-2-ylidene)adamantane-1-carboxamide]
[1]; Huh-7, read-out: HBV DNA IC50
  IC50: 752 nM
Wild type HBV (pHBV 1.3)
  IC50: 138 nM

Read-outs that look alike come from different tables or passages of the source.
